Screening data (PubChem BioAssay)
Statin myotox sup: suppression of simvastatin myotoxicity | C2C12 myotubes + simvastatin, ATP luminescence, 48 h; scaled: DMSO 0, geranylgeraniol control 100 | rescue of ATP level, % at 7.49 µM | 0.78% of 330,000 active;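 active = mean ATP rescue above about 67%, or every replicate alone reaching that limit, limit read from the data, passing the limit was not always enough; inconclusive = no clear call, values can overlap the other calls; inactive = mean under the limit and some replicate under it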;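 note: myotubes were challenged with 10 µM simvastatin during compound exposure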
N-glyco inh: N-linked glycosylation inhibition; D54 ERlucT glycosylation luciferase reporter, 24 h; percent of 100 nM tunicamycin response; reporter increase, % at 12.5 µM; 0.23% of 360,000 active; AID 588692;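 active = mean luciferase reporter signal, scaled so untreated is 0 and the glycosylation-blocking control 100, at or above a set limit in every replicate; inconclusive = mean reaches the limit but not every replicate does; inactive = mean below the limit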;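 note: luciferase carries N-glycosylation sites so blocking glycosylation raises the light; 0% = median of neutral control wells and 100% = median of 100 nM tunicamycin wells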
Yeast UUG start: modulators of start codon recognition fidelity in yeast; AID 602363; hit rate 0.13% among 350,000; activity score, % at 18.7 µM; S. cerevisiae UUG-firefly luciferase reporter, luminescence/redox ratio;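 active = replicate mean at a twofold rise or more, about +100% in these data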;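 note: firefly luciferase made from a UUG start codon reports start codon fidelity; reporter light over untreated wells divided by growth signal over untreated wells; some hits fall short of that in this replicate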
miR-122 sensor: inhibitors of miR-122 in Huh7 cells | Huh7 miR-122 Renilla luciferase sensor, 48 h; neutral wells = 0, positive control = 100 | activation (reporter increase), % at 12.5 µM | 0.3% of 340,000 active;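 active = mean replicate activation score at least 90 and every replicate individually at or above 90; inconclusive = only one of the two criteria met; inactive = neither criterion met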;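 note: higher luciferase means less miR-122 activity so hits act as miR-122 inhibitors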
Cneo AK release: causes C. neoformans cell lysis; adenylate kinase release luminescence, 4 h; normalised: neutral wells 0, clomiphene wells 100; lysis activity, % at 15 µM; 0.2% of 360,000 active;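 active = mean lysis activity across replicates of at least 80%, whatever share of replicates individually reach that level; inactive = mean lysis activity below 80%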
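Schedule: static 4 h at 37 °C with compound, 1 h detection; system: C. neoformans cells; benchmarks: Clomiphene as positive control; buffer or medium: fresh YPD medium; measure: luminescence rise reflecting yeast cell lysis; measured by: luminescent adenylate kinase detection reagent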
* hit, by the source's call; ? = inconclusive; . = no result given; [ ] = dose if it differs, or a comment. In the library only some 1.2% were active in any assay of this set; here they are far more common.

1. C[C@H](CO)N1C[C@H](C)[C@@H](CN(C)Cc2ccccc2)Oc2ccc(NC(=O)CCCCCC(=O)Nc3ccccc3N)cc2C1=O
2. C[C@@H]1CN([C@@H](C)CO)C(=O)Cc2cc(NC(=O)CCCCCC(=O)Nc3ccccc3N)ccc2O[C@H]1CN(C)Cc1ccc(-c2ccccc2)cc1
3. C[C@@H]1CN([C@H](C)CO)C(=O)Cc2cc(NC(=O)CCCCCC(=O)Nc3ccccc3N)ccc2O[C@H]1CN(C)Cc1ccc(-c2ccccc2)cc1
4. C[C@@H]1CN([C@H](C)CO)C(=O)Cc2cc(NC(=O)CCCCCC(=O)Nc3ccccc3N)ccc2O[C@@H]1CN(C)Cc1ccc2c(c1)OCO2
5. C[C@H](CO)N1C[C@H](C)[C@H](CN(C)Cc2ccc(-c3ccccc3)cc2)Oc2ccc(NC(=O)CCCCCC(=O)Nc3ccccc3N)cc2CC1=O
6. C[C@@H]1CN([C@H](C)CO)C(=O)Cc2cc(NC(=O)CCCCCC(=O)Nc3ccccc3N)ccc2O[C@@H]1CN(C)Cc1ccccc1
7. C[C@H](CO)N1C[C@H](C)[C@@H](CN(C)Cc2ccc(-c3ccccc3)cc2)Oc2ccc(NC(=O)CCCCCC(=O)Nc3ccccc3N)cc2CC1=O
8. C[C@H]1CN([C@@H](C)CO)C(=O)Cc2cc(NC(=O)CCCCCC(=O)Nc3ccccc3N)ccc2O[C@H]1CN(C)CC1CCCCC1
Assay by compound | 1 | 2 | 3 | 4 | 5 | 6 | 7 | 8
Statin myotox sup | -14.6 | 94.0* | 135.2* | 62.1 | 25.1 | ? | 87.9* | 147.3*
N-glyco inh | 28.9* | . | . | . | . | . | . | .
Yeast UUG start | 22.6 | 1.6 | 3.1 | -4.2 | 9.0 | 10.1 | 4.4 | 6.9
miR-122 sensor | -4.4 | -8.7[16.7 µM] | -5.6[16.7 µM] | -11.5[16.7 µM] | 22.6[16.7 µM] | 9.0[16.7 µM] | -1.9[16.7 µM] | 5.9[16.7 µM]
Cneo AK release | -1.8 | -1.5 | 0.3 | 0.0 | -1.0 | 0.9 | 1.2 | 8.1

9. C[C@@H]1CN([C@H](C)CO)C(=O)Cc2cc(NC(=O)CCCCCC(=O)Nc3ccccc3N)ccc2O[C@H]1CN(C)CC1CC1
10. C[C@H]1CN([C@@H](C)CO)C(=O)Cc2cc(NC(=O)CCCCCC(=O)Nc3ccccc3N)ccc2O[C@@H]1CN(C)Cc1ccc(Oc2ccccc2)cc1
11. C[C@H]1CN([C@@H](C)CO)C(=O)Cc2cc(NC(=O)CCCCCC(=O)Nc3ccccc3N)ccc2O[C@H]1CN(C)Cc1ccccc1
12. C[C@@H]1CN([C@H](C)CO)C(=O)Cc2cc(NC(=O)CCCCCC(=O)Nc3ccccc3N)ccc2O[C@@H]1CN(C)Cc1ccc(Oc2ccccc2)cc1
13. COc1ccc(NC(=O)Nc2ccc3c(c2)CC(=O)N([C@@H](C)CO)C[C@@H](C)[C@@H](CN(C)C(=O)Nc2ccc(F)cc2)O3)cc1
14. COc1ccc(NC(=O)N(C)C[C@@H]2OCc3ccccc3-c3ccccc3C(=O)N([C@H](C)CO)C[C@H]2C)cc1
15. COc1cc(-c2nc(-c3ccccc3)c(-c3cccs3)[nH]2)cc(OC)c1O
16. COc1cc(-c2nc(-c3ccccc3)c(-c3cccs3)[nH]2)cc(OC)c1OC
Assay by compound | 9 | 10 | 11 | 12 | 13 | 14 | 15 | 16
Statin myotox sup | 6.8 | 101.9* | 73.4* | 27.0 | 3.7 | . | 7.6 | 5.5
N-glyco inh | . | . | . | . | . | . | 24.9 | 56.6*
Yeast UUG start | -6.5 | 9.0 | 4.8 | -4.8 | 4.3 | 15.0 | -12.9 | -6.8
miR-122 sensor | -8.3[16.7 µM] | -7.6[16.7 µM] | 7.1[16.7 µM] | -7.1[16.7 µM] | -0.8[16.7 µM] | . | 0.9 | -11.1
Cneo AK release | -5.1 | -1.5 | -3.3 | -1.0 | -0.4 | -1.5 | 12.8 | -0.4

Part of the list above, with values under each structure.
The line under a structure holds: Statin myotox sup | N-glyco inh | Yeast UUG start | miR-122 sensor | Cneo AK release
[11] C[C@H]1CN([C@@H](C)CO)C(=O)Cc2cc(NC(=O)CCCCCC(=O)Nc3ccccc3N)ccc2O[C@H]1CN(C)Cc1ccccc1
    73.4* | . | 4.8 | 7.1[16.7 µM] | -3.3
[12] C[C@@H]1CN([C@H](C)CO)C(=O)Cc2cc(NC(=O)CCCCCC(=O)Nc3ccccc3N)ccc2O[C@@H]1CN(C)Cc1ccc(Oc2ccccc2)cc1
    27.0 | . | -4.8 | -7.1[16.7 µM] | -1.0
[13] COc1ccc(NC(=O)Nc2ccc3c(c2)CC(=O)N([C@@H](C)CO)C[C@@H](C)[C@@H](CN(C)C(=O)Nc2ccc(F)cc2)O3)cc1
    3.7 | . | 4.3 | -0.8[16.7 µM] | -0.4

Remaining list, next part.
17. Cc1c(C(=O)N/N=C/c2cccnc2)sc(N)c1C#N
18. CCOC(=O)c1ccc(NC(=O)N2CCCCC2)cc1
19. CCOC(=O)c1ccc(NC(=O)N2CCc3ccccc32)cc1
20. C/C=C/c1ccc2c(c1)O[C@H](CN(C)C(=O)Cc1ccncc1)[C@@H](C)CN([C@H](C)CO)S2(=O)=O
21. C[C@@H]1CCCCO[C@@H](CN(C)CC2CCCCC2)[C@@H](C)CN([C@@H](C)CO)C(=O)c2cc(NS(=O)(=O)c3ccccc3)ccc2O1
22. C[C@@H]1CCCCO[C@@H](CN(C)CC2CCCCC2)[C@@H](C)CN([C@H](C)CO)C(=O)c2cc(NS(=O)(=O)c3ccc(F)cc3)ccc2O1
23. C[C@@H]1CN([C@H](C)CO)C(=O)c2cc(NS(=O)(=O)c3ccc(F)cc3)ccc2O[C@@H](C)CCCCO[C@H]1CN(C)CC1CCCCC1
24. O=C(C[C@H]1C[C@H]2c3cc(NC(=O)NC4CCCCC4)ccc3O[C@H]2[C@H](CO)O1)NCc1ccccn1
Assay by compound | 17 | 18 | 19 | 20 | 21 | 22 | 23 | 24
Statin myotox sup | 34.7 | 137.1* | 72.1* | -18.7 | 10.1 | 96.3* | -309.2 | -0.4
N-glyco inh | 40.5* | -1.9 | -0.3 | . | . | . | . | .
Yeast UUG start | -16.7 | -24.8 | 4.2 | -0.3 | 50.2 | -0.9 | 17.4 | -7.7
miR-122 sensor | 5.9 | 3.2 | 2.2 | -11.1[16.7 µM] | -0.1[16.7 µM] | -11.3[16.7 µM] | -4.3[16.7 µM] | 6.8[16.7 µM]
Cneo AK release | -0.3 | -4.3 | -7.7 | 0.8 | 80.1* | 0.2 | 5.2 | -1.2

25. C[C@H](O)C#Cc1cnc2c(c1)C(=O)N([C@@H](C)CO)C[C@@H](C)[C@H](CN(C)C(=O)CN1CCOCC1)O2
26. O=C(C[C@@H]1CC[C@H]2[C@@H](COC[C@@H](O)CN2C(=O)C2CC2)O1)NCc1ccncc1
27. CC1(C)NC(=O)N(CNc2cc(Cl)ccc2Cl)C1=O
28. CC1(C)NC(=O)N(CC(=O)N2CCN(S(=O)(=O)c3cc(Cl)ccc3Cl)CC2)C1=O
29. Cc1cc(C(=O)Nc2cccc3c2O[C@H](CN(C)Cc2ccccc2)[C@H](C)CN([C@H](C)CO)C3=O)n(C)n1
30. COc1ccc(NC(=O)Nc2ccc3c(c2)CC(=O)N([C@@H](C)CO)C[C@@H](C)[C@@H](CN(C)C(=O)NC(C)C)O3)cc1
31. C[C@@H]1CN([C@@H](C)CO)C(=O)Cc2cc(NC(=O)Nc3ccc(F)cc3)ccc2O[C@@H]1CN(C)Cc1ccc(Cl)c(Cl)c1
32. COc1ccc(CN(C)C[C@@H]2Oc3ccc(NC(=O)Nc4ccc(F)cc4)cc3CC(=O)N([C@H](C)CO)C[C@H]2C)cc1
Assay by compound | 25 | 26 | 27 | 28 | 29 | 30 | 31 | 32
Statin myotox sup | 27.0 | 8.6 | 99.9* | 35.8 | 4.6 | -36.9 | 108.0* | 24.3
N-glyco inh | . | . | 0.0 | 3.2 | . | . | -4.7 | .
Yeast UUG start | -1.1 | . | -8.8 | -3.7 | -5.4 | 19.5 | 10.8 | 4.8
miR-122 sensor | 4.6[16.7 µM] | 2.5[16.7 µM] | -0.1 | -5.0 | 3.5[16.7 µM] | 100.8*[16.7 µM] | -24.4 | 3.1[16.7 µM]
Cneo AK release | -1.4 | -2.9 | -1.4 | 0.0 | 1.8 | 74.1 | -0.5 | 115.1*

33. Cc1noc(C)c1NC(=O)Nc1ccc2c(c1)CC(=O)N([C@H](C)CO)C[C@@H](C)[C@H](CN(C)Cc1ccc(Cl)c(Cl)c1)O2
34. Cc1noc(C)c1NC(=O)Nc1ccc2c(c1)CC(=O)N([C@@H](C)CO)C[C@H](C)[C@@H](CN(C)Cc1ccc(Cl)c(Cl)c1)O2
35. CN1CCN(C(=O)C[C@@H]2CC[C@@H]3[C@H](COC[C@@H](O)CN3Cc3cccc(-c4ccncc4)c3)O2)CC1
36. CCc1nnc(NC(=O)Cn2c(=O)oc3ccccc32)s1
37. Cc1nc(N)sc1-c1csc(N(C)c2ccc(O)cc2)n1
38. COc1ccc(S(=O)(=O)Nc2ccc3c(c2)C(=O)N([C@@H](C)CO)C[C@@H](C)[C@H](CN(C)S(=O)(=O)c2ccc(OC)cc2)OCCCC[C@@H](C)O3)cc1
Assay by compound | 33 | 34 | 35 | 36 | 37 | 38
Statin myotox sup | 44.1 | 22.9 | 12.2 | 139.9* | 94.0* | .
N-glyco inh | . | . | . | -0.5 | -2.3 | .
Yeast UUG start | 2.2 | 9.6 | -2.6 | 2.0 | -20.4 | -11.7
miR-122 sensor | 71.8[16.7 µM] | 108.8*[16.7 µM] | 2.5[16.7 µM] | 4.0 | 2.1 | -12.0[16.7 µM]
Cneo AK release | -1.9 | -0.4 | 6.9 | 0.1 | 6.0 | -14.9
